Laboratory results published in patent US7507421B2, “Hydroxycitric acid salt composition and method of making” (Unibar Corporation, priority 2002, dated 2009).

Test: Solubility in water
Type: physicochemical
Settings: description of test compound in LD50 report
Protocol: The resultant solution was spray dried to yield a salt of hydroxycitric acid with the following analysis: potassium content 11% to 18%, calcium content 5% to 12%, structural moisture 3% to 5% and hydroxycitric acid content 70% to 76%. The sodium content was less than 0.5% and lactone less than 0.5%. […] This salt composition is tasteless and white in color. A solution of 5 g in 100 ml of de-ionized sterile water was subjected to an accelerated storage study chamber for 2 months.

**Q.** For “Combined Potassium-Calcium Salts of Hydroxycitric Acid [Example 3]”, which Solubility is on record?
**A.** Soluble In Water
